Experimental data reported in patent publication US6372772B1, “Inhibitors of redox signaling and methods of using same” (Prolx Pharmaceuticals Corporation, priority 1997, dated 2002).

Chains of the proteins cited; added tags and fusions are not shown. Residues count along the entry.
UniProt P00390, 44-522: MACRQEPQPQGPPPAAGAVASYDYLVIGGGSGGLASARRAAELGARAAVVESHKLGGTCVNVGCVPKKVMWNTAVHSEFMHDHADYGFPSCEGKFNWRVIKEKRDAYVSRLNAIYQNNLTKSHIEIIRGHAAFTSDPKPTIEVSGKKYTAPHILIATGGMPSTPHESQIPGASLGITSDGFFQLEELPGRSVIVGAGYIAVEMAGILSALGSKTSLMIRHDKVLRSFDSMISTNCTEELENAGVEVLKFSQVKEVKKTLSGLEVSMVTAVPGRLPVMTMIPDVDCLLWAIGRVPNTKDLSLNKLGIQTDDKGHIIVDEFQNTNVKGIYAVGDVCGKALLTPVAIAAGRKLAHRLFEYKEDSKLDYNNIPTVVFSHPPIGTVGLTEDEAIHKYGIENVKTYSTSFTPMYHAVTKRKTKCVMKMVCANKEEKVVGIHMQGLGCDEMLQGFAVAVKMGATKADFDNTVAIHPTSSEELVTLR
UniProt Q16881, 151-649: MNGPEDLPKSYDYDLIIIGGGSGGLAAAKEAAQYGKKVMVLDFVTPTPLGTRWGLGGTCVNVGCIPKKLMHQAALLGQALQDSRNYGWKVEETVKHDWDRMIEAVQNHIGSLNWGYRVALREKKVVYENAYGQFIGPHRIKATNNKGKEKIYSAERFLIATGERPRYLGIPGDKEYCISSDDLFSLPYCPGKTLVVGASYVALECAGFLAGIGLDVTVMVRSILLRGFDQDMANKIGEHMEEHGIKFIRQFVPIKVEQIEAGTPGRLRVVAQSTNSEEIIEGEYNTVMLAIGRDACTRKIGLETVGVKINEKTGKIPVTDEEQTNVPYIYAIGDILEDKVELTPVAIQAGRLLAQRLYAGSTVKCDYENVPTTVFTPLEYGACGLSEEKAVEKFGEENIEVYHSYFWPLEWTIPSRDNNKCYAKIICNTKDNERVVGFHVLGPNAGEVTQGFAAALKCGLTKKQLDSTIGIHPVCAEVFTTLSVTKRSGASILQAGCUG

What was measured:
[1] = system: NCI's panel of 60 human cancer cell lines; conditions: mean 50% growth inhibition concentration, entire cell line panel; cited from earlier work
[2] = target: glutathione reductase (Homo sapiens, UniProt P00390); assay: glutathione reductase assay (DTNB reduction); type: biochemical; conditions: Table II
[3] = target: thioredoxin reductase (Homo sapiens, UniProt Q16881); assay: thioredoxin reductase assay (DTNB reduction)
[4] = target: thioredoxin reductase/thioredoxin (Homo sapiens, UniProt Q16881); assay: thioredoxin reductase/thioredoxin-dependent insulin reduction assay; type: biochemical; conditions: for IC50 (μg/ml) in TR/Trx Assay: Table I, 30 min preincubation
[5] = system: leukemia cell line; conditions: mean 50% growth inhibition concentration; cited from earlier work

## CN(C)CC1CCC(CN(C)C)C1=O (centres unmarked)
[1]
  GI50 (μg/ml) All Tumors: 2.9 µg/mL (≈ 14.6 µM)
[2]
  IC50GR: 30 µg/mL (≈ 151 µM)
[3]; Table II, thioredoxin reductase alone
  IC50TR: 1 µg/mL (≈ 5.04 µM)
[3]; ratio of IC50 glutathione reductase to IC50 thioredoxin reductase
  GR/TR: 30
[4]
  IC50 (μg/ml) in TR/Trx Assay: 0.39 µg/mL (≈ 1.97 µM)
[4]; Table II
  IC50TRTrx: 0.39 µg/mL (≈ 1.97 µM)
[4]; Table III
  in vitro IC50 TR/Trx (μg/ml): ≦0.5 μg/ml
[4]; ratio of IC50 TR alone and IC50 TR/Trx assay
  TR/TRTrx: 2.6

## C[C@@H]1O[C@@H](CC(=O)O)CC2=C1C(=O)c1c(O)cccc1C2=O
[5]
  GI50 (μg/ml) Leukemias: 0.03 µg/mL (≈ 0.0992 µM)
[1]
  GI50 (μg/ml) All Tumors: 0.1 µg/mL (≈ 0.331 µM)
[4]
  IC50 (μg/ml) in TR/Trx Assay: 3.0 µg/mL (≈ 9.92 µM)

Converted amounts (≈) assume the structure as drawn.
